Laboratory results published in patent US20220218834A1, “APOHEMOGLOBIN-HAPTOGLOBIN COMPLEXES AND METHODS OF USING THEREOF” (OHIO STATE INNOVATION FOUNDATION, priority 2019, published 2022).

Assay: Specificity of Al-PC binding to proteins (UV-visible absorbance at 680 nm)
Conditions: absorbance at 680 nm after Al-PC addition in PBS
Method: Optimization of EtOH Addition to ApoHb. The stock Al-PC solution was diluted 100× into 100% EtOH.
The concentrations of Hp, HSA, Hb and rHb in solution were 1.0 mg/mL, 0.35 mg/ml (and 3.5 mg/ml), 0.35 mg/mL, and 0.33 mg/mL respectively.

With “HSA: human serum albumin [reference compound]” the Al-PC binding was “almost no binding to Al-PC”.
